We go through 2 compounds from PubChem BioAssay AID568 (Sanford-Burnham Center for Chemical Genomics, 2006).

Protein sequences, listed by entry. Tags and fused reporters are not part of them.
UniProt P11142, whole entry: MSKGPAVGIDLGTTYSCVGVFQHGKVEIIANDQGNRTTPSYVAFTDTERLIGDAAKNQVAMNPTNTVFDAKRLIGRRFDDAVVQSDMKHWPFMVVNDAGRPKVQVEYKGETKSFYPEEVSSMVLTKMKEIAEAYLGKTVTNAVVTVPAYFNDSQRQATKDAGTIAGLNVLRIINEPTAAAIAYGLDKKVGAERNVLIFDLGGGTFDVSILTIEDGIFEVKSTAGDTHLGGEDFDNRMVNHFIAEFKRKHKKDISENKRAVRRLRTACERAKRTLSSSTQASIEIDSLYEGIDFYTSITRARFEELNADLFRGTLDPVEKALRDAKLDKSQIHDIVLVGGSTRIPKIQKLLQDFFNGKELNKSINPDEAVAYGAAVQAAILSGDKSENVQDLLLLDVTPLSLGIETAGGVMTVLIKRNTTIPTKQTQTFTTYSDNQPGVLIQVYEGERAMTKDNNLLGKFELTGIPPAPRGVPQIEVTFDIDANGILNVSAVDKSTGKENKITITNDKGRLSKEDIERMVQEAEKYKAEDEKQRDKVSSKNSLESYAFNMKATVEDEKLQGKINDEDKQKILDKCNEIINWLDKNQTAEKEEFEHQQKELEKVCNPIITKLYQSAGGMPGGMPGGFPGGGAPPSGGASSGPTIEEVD

Only a part is listed here, and it is no random draw. Measured potencies and affinities stand elsewhere. Some tests of the compounds listed are not included; inactive here does not mean inactive elsewhere. Activity calls are given as the source filed them. The rule behind the calls is not given here.

For this test, the target named is Heat shock cognate 71 kDa protein (Homo sapiens) (UniProt P11142). The experiment in a line: small molecules displacing fluorescent ligand from Hsc70 – biochemical, fluorescence polarization, primary screen (AID 568). The conditions noted are these: mP, at 20 µM, hits give high values. For orientation: In fluorescence polarisation assays a small probe gives low polarisation when free and higher when bound to something large.
In the case of `CN(C)c1cccc(C(=O)NCC2(N(C)C)CCCCC2)c1`, the displacement is inactive: 3.5%.
`O=C(OC1CN2CCC1CC2)C(CO)(c1ccccc1)c1ccccc1` (configuration not stated): the displacement was inactive: 3.2%.
